Values quoted from earlier work as cited in US20050124645A1, “Methods and compositions for increasing CD4lymphocyte immune responsiveness” (priority 1998, published 2005).

Settings: DePaoli et al. 1997; cited from earlier work

## IL-2: cytokine which binds to receptors on T cells having γc; recombinant, R&D Systems
  side effects: systemic toxic side effects
